Entries after “also recorded” stand apart in the source; their conditions may differ.
Assays:
MDA-MB-231 tumors = assay: MDA-MB-231 TNBC model in chick embryos; format: in vivo, chick embryo; conditions: 15 and 90 μg, every 4D, two doses
Method in brief: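 MDA-MB-231 cells were inoculated into fertilized White Leghorn eggs on embryonic day E9. From E11, embryos received vehicle, test compound (15 or 90 μg, every four days, two doses) or paclitaxel positive control (2.1 μg, every other day, four doses). Metastatic invasion into the lower chorioallantoic membrane was assessed. Tumors were dissected on E19.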

A549 tumors = assay: A549 non-small cell lung cancer xenograft model; format: in vivo, mouse; conditions: 6, 60 mg/kg, Q4D
B16-F10 melanoma cells = assay: B16-F10 syngeneic lung metastasis model; format: in vivo, mouse; conditions: SDX-7320 25 mg/kg Q4D x 3, day 15
Method in brief: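 Female C57BL/6NTac mice (8/group) received B16-F10 melanoma cells by tail vein. Cells were grown in DMEM with 5% FBS at 37°C under 5% CO2. Dosing began 24 h after injection: saline vehicle, test compound 25 mg/kg Q4D × 3, and a reference METAP2 inhibitor 30 mg/kg Q2D × 6. Lungs were excised on day 15 and visible metastases counted by stereomicroscope. Two-tailed Student t test.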

[1] = Rat functional observation battery; format: in vivo; conditions: 10 and 30 mg/kg, 36 hours postdose, not considered adverse
Method in brief: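 Under GLP, male experimentally naïve CD [Crl:CD(SD)] rats, about 8 weeks old, received a single s.c. dose of 3, 10 or 30 mg/kg (ten/group). A functional observation battery was run pre-dose (day −1) and at 12 and 36 h post-dose. Mortality, clinical observations and body weights were also recorded.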

CNS exposure = format: in vivo; conditions: rat, equimolar small molecule doses, measured near plasma Tmax
Method in brief: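 Plasma and CSF levels of the small-molecule inhibitor were measured in rats after intravenous dosing of the polymer conjugate, the free inhibitor or a comparator inhibitor, all at equimolar small-molecule doses. CSF was sampled near plasma Tmax. For the rapidly metabolised comparator, its active metabolite (M-IV) was measured rather than the parent.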

[2] = Aqueous solubility of SDX-7320; format: physicochemical; conditions: 25°C
HUVEC = HUVEC proliferation; format: cell-based, human; conditions: 72 hours
Method in brief: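 HUVEC were grown in EBM-2/EGM-2 with 2% FBS and 2X gentamicin, seeded at 5,000 cells/well and left overnight. Compounds were diluted in DMSO, then in the same medium (final DMSO 0.1%). After 72 h at 37°C, CellTiter 96 Aqueous One reagent was added for 3 h at 37°C and A490 read. The mean A490 of highest-concentration wells was subtracted, and IC50 came from a four-parameter variable-slope log(inhibitor)-response fit.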

For “Glycine, N-(2-methyl-1-oxo-2-propen-1-yl)glycyl-L-phenylalanyl-L-leucyl-, 4-nitrophenyl ester, polymer with N-(2-hydroxypropyl)-2-methyl-2-propenamide, reaction products with (3R,4S,5S,6R)-5-methoxy-4-[(2R,3R)-2-methyl-3-(3-methyl-2-buten-1-yl)-2-oxiranyl]-1-oxaspiro[2.5]oct-6-yl N-(trans-4-aminocyclohexyl)carbamate [SDX-7320]”, the “MDA-MB-231 tumor growth relative to vehicle-treated tumors” value (MDA-MB-231 tumors) was “dose-dependent inhibition of tumor growth”, the “inhibition of A549 tumor growth relative to vehicle-treated controls” value (A549 tumors) was “significant, dose-dependent inhibition” and the “outgrowth of B16-F10 melanoma cells in the lungs relative to vehicle” value (B16-F10 melanoma cells) was “significantly inhibited the outgrowth; also recorded: equally efficacious as TNP-470”. The “decrease in body weight gain relative to vehicle-treated animals” value [1] was less than 5%, the “CSF levels of SDX-7539, fold lower than the active metabolite of TNP-470 (M-IV)” value (CNS exposure) was 17 fold and the “CSF levels of SDX-7539, fold lower compared with equivalent amount of free (unconjugated) SDX-7539” value (CNS exposure; intravenous) was greater than 50 fold. For the same substance, the Aqueous solubility [2] was “greater than 200 g/L” and the “fold reduced potency relative to the small molecule inhibitors in HUVEC growth” value (HUVEC) was greater than 500 fold.

— PMC11063762 (Molecular Cancer Therapeutics, 2024)
